Assay results as given in patent US20170157260A1, “Glycosylated Polypeptide and Drug Composition Containing said Polypeptide” (Glytech, Inc., priority 2011, published 2017).

System: growth hormone (GH) production
Assay: GH production suppression test with rats
Type: in vivo
Details: Table 8 (Example 87), dose 10 nmol/kg, vehicle 1012

Substance: C(disialo)-R-K-SRIF14 [Example 18]
- GH: 30 ng/mL
